The record followed here is article PMC7948456, “Kinetics of cytochrome P450 3A4 inhibition by heterocyclic drugs defines a general sequential multistep binding process” (The Journal of Biological Chemistry, 2020).

Protein sequences, listed by entry. Tags and fused reporters are not part of them. Residues count along the entry.
UniProt P08684, 13-503: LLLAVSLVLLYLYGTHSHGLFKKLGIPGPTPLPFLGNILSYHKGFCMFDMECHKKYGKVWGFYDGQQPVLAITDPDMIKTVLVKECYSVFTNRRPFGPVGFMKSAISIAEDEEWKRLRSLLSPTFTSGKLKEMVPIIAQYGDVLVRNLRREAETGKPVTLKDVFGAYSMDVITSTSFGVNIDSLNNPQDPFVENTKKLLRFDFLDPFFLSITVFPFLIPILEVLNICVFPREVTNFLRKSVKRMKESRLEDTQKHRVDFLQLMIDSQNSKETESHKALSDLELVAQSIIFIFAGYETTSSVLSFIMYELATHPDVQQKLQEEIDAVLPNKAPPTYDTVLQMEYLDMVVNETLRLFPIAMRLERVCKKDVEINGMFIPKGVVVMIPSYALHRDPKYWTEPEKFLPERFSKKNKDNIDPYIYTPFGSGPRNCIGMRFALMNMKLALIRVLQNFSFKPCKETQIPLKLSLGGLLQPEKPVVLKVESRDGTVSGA

Series [1] concerns the target T1, P450 3A4 (Homo sapiens, UniProt P08684). Kind of series: Inhibitor-binding kinetics (stopped-flow absorbance, SVD analysis). As to conditions: ligand 2 μM final, P450 3A4 2 μM.
The target in series [2] is T1, P450 3A4. Conditions: KinTek Explorer fit.

Regarding `CCC(C)n1ncn(-c2ccc(N3CCN(c4ccc(OCC5COC(Cn6cncn6)(c6ccc(Cl)cc6Cl)O5)cc4)CC3)cc2)c1=O` (stereo not shown), at P450 3A4 [1], the “kobs, initial rate of binding (ΔA390 − A425)” value is 195 s⁻¹. The “k−3 (model)” value on P450 3A4 [2] (E + I ⇄ EI off-rate) turned out to be 40 s⁻¹. Besides, on P450 3A4 [2] (EI → E′I), the “k4 (model)” value is 0.3 s⁻¹. In addition, on P450 3A4 [2] (E′I → EI), the “k−4 (model)” value came to 0.07 s⁻¹.
